Assay results as given in article PMC3662788, “The Catalytic Roles of P185 and T188 and Substrate-Binding Loop Flexibility in 3α-Hydroxysteroid Dehydrogenase/Carbonyl Reductase from Comamonas testosteroni” (PLoS ONE, 2013).

Chains of the proteins cited; added tags and fusions are not shown.
UniProt P80702, whole entry P185G: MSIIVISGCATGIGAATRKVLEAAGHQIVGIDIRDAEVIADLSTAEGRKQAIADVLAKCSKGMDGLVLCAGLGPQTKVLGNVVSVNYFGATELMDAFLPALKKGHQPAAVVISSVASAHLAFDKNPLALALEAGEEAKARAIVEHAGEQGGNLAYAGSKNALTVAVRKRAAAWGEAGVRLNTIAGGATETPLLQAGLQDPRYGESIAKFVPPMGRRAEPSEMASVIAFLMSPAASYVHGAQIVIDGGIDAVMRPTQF

Target: P185G mutant 3α-HSD/CR (Comamonas testosteroni, UniProt P80702, P185G)
Test: Steady-state kinetics and primary isotope effects, oxidation of androsterone with NAD^+

NC(=O)c1ccc[n+]([C@@H]2O[C@H](COP(=O)([O-])OP(=O)(O)OC[C@H]3O[C@@H](n4cnc5c(N)ncnc54)[C@H](O)[C@@H]3O)[C@@H](O)[C@H]2O)c1 [NAD^+]
ΔΔGbmut/wt (differential ground-state binding energy, enzyme-NAD^+ complex) (P185G vs wild-type, pH 10.5, Equation 4): 2.6 kcal/mol
kcat/Ka (NAD^+) (P185G, 0.1 M Caps pH 10.5, 25°C): 1.3e+06 ± 400000 M⁻¹ s⁻¹
